Experimental data taken from patent publication US10961232B2.

By UniProt entry, the sequences of proteins in these tests, tags left out.
UniProt Q13535, whole entry: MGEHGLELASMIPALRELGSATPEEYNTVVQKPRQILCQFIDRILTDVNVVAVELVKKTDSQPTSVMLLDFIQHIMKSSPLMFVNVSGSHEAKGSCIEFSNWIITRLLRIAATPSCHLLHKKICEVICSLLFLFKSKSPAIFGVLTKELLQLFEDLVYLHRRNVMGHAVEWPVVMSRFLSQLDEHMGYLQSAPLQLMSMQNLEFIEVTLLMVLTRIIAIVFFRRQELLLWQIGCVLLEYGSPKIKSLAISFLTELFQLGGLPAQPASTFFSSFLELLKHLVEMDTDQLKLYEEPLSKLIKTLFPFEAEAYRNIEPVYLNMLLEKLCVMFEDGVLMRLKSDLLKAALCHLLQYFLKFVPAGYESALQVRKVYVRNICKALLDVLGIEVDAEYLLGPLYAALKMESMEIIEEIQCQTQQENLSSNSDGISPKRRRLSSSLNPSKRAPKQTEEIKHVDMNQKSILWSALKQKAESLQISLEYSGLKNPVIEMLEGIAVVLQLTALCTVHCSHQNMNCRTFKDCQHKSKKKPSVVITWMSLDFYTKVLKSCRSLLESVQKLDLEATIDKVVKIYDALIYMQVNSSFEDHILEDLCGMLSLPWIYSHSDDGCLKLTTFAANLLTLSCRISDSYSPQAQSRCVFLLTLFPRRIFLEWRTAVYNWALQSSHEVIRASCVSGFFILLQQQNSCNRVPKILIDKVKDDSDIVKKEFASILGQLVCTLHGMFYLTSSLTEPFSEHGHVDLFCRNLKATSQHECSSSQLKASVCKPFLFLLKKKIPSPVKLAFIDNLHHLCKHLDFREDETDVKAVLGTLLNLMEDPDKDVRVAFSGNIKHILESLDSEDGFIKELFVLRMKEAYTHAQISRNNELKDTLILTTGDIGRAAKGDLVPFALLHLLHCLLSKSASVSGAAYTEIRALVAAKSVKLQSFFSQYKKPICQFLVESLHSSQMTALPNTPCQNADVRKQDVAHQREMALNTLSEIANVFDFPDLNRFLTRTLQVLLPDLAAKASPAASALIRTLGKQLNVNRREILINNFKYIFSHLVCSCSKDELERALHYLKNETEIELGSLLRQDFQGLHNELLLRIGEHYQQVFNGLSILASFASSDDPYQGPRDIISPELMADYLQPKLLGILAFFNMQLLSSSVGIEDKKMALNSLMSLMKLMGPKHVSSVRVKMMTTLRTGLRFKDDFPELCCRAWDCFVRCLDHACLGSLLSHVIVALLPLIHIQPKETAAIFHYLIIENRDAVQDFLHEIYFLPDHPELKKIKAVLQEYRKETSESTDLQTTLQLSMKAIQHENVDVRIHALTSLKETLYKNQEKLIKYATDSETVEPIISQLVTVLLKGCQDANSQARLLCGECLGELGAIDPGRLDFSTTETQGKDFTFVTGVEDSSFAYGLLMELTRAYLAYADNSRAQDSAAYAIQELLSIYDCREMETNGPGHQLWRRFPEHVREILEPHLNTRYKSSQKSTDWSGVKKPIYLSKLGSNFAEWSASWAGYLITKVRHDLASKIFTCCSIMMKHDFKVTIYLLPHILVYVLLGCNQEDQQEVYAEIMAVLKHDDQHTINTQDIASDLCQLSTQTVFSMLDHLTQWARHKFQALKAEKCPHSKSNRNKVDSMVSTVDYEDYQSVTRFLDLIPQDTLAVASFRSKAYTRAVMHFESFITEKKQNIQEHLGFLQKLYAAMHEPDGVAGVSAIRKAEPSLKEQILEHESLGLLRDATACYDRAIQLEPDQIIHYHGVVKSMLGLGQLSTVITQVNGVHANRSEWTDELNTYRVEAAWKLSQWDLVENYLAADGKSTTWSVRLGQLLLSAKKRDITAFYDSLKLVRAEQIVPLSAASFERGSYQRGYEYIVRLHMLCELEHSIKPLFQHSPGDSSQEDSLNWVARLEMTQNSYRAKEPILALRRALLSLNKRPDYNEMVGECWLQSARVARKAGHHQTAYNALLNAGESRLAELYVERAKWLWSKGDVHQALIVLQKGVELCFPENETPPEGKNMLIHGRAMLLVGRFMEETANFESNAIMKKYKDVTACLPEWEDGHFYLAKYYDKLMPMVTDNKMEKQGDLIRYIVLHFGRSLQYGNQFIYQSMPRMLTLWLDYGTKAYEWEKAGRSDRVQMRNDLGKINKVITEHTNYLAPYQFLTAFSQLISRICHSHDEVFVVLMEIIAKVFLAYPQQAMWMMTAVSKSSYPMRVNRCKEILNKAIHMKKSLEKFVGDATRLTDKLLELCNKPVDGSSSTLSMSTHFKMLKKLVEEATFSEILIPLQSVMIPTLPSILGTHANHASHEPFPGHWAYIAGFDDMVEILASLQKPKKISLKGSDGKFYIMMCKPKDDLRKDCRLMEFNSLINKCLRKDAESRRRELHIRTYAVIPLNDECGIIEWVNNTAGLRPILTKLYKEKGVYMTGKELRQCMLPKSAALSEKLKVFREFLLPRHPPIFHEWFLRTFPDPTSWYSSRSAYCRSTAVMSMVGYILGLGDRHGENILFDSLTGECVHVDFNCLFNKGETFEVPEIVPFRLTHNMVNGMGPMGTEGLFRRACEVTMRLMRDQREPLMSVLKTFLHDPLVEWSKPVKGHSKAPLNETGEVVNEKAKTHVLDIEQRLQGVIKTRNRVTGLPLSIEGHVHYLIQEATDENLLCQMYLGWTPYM

Target: full-length ATR (Homo sapiens (Human), UniProt Q13535)
Test: ATR inhibition assay (radioactive-phosphate incorporation)
Assay type: biochemical
Conditions: read-out: ATR Ki; ATR Inhibition Ki values; 5 nM full-length ATR, 10 μM ATP

## Cc1cccc2nc(-c3nc(-c4ccc(C(=O)N5CC[C@@H](N(C)C)C5)cc4)cnc3N)[nH]c12
  Ki: 10 to 100 nM
